Values of other authors, collected in patent US7041320B1 (priority 2002, dated 2006).

Test system: physically-dependent opioid abusers
Settings: historical opioid users challenged with the same hydromorphone dose, no depot

For CN1CC[C@]23c4c5ccc(O)c4O[C@H]2C(=O)CC[C@H]3[C@H]1C5 [hydromorphone], the “mean peak response (SEM) on VAS "Do you feel any drug effect?"” value is listed as 37.1 (SEM=8.0).
